The values below come from paper PMC10318527, “Utilization of dietary mixed-linkage β-glucans by the Firmicute Blautia producta” (The Journal of Biological Chemistry, 2023).

Holding throughout (experiment): purified protein, by the assay type
Settings in all cases: other: PAHBAH assay, 100 mM HEPES pH 6.5, 37 °C

Substrate in series [1]: OC[C@H]1O[C@@H](O[C@@H]2[C@@H](O)[C@H](O[C@H]3[C@H](O)[C@@H](CO)OC(O)[C@@H]3O)O[C@H](CO)[C@H]2O)[C@H](O)[C@@H](O)[C@@H]1O
Substrate in series [2]: OC[C@H]1O[C@@H](O[C@H]2[C@H](O)[C@@H](CO)OC(O)[C@@H]2O)[C@H](O)[C@@H](O)[C@@H]1O
Substrate in series [3]: OC[C@H]1O[C@@H](O[C@H]2[C@H](O)[C@@H](O)[C@H](O[C@H]3[C@H](O)[C@@H](CO)OC(O)[C@@H]3O)O[C@@H]2CO)[C@H](O)[C@@H](O)[C@@H]1O
The format is biochemical, Blautia producta ATCC 27340.

B1: BpGH3-X62MLG (Blautia producta ATCC 27340 = DSM 2950) (protein)
chain: MENKYVIDWDKYAALARRAAAEGAVLLKNDNQALPLKKETISVFGRIQYHYYKSGTGSGGLVNAKYVIGIMDALQEEKDLTLDEELAAVYRSWIMEHPFDQGSGWAQEPWSQEEMPLDEKMVEEAAARSDTAVIVIGRTAGEDRDASAEKGSYLLTDLEEDMLEKVCRLFKKSIVVLNVGNIIDMKWVEKYNPSAVLYTWQGGQEGGHSAADVLTGRVNPCGKLADTIARDISDYPSTENFGGGDFDIYAEDIYVGYRYFETFARDKVLYPFGFGLSYTSFRTECGPIKRLDGETSVCVKVTNAGSCAGKEVVQMYVEPPQGKLGKPSRNLAAFAKTKCLQPGESQELVLKVTDYYISSYDDSGAAGFKSCYVLENGSYGIYVGTDVRGAEAAGSFYIPETIATSVCTEAAGPVRQFKRMRAKEGGALAWEEAPLRTHKMQERIHKEILPDITYTGNKGFTLGEVFDRDISLNEFLAQLSEEDLCCIVRGEGMCSPKVTPGTAAAFGGVTESLQKLGIPCGCCADGPSGIRMDCGTPAFSMPNGTCLACTFDTELSEELYEMEGAELRKNRIDTLLGPGINIHRNPLNGRNFEYFSEDPYLTGIMASAQLKGMARFGVTGTIKHFAANNQEYHRRLLDSVMSERALREIYLRGFEIAVKEGKAYSIMTTYGAINGLWTASNYDLLTTILRKEWGFEGMVMTDWWADLNDEGGQPSTDNLAAMVRSQNDVYMVTQDSLNNKDNLMESLKNGTLKRGALLRCAGNICRMLMRSPVMERTLGRMSEEEKKAGEVMAGEDKVDFDITYHKVQGSLVLDGTKIDTSKGNSVVYGILLDTFGSYKVRLKVKADSGELAQIPVSVFANGHLEGTVTINGTKGEWIEIEKTIGPLFGPHNYVRLYFAQSGMQIQTVTIELQEKMDRGF
In the case of B1, the Km came to 240 ± 40 µM in series [1] and 240 ± 20 µM in series [2].

B2: BpGH3-AR8MLG (Blautia producta ATCC 27340 = DSM 2950) (protein)
chain: MKLKNKTFTGTTSNEVTARETENRKLARLAAAEGFVLLKNQDHILPLKKGIKLGLYGAGAVKTIKGGTGSGDVNERECVNICQGLENAGYEITSSAWLEAYASLYEETRLKWRDEILGKLEAYDNNFFEAYSTTPFFMPCGNPVDVDKASDDGADTAIYVLSRIAGENADRHDTEGDYYISAEEKALIAQLSKAYDSLVLVINTGGLVDLAFVQEFDNIKAVLQFVQAGQEGGSAFADVVSGKVTPSGKLADTWAFDYKDYPNSETFSFKNGDVNTEKYQEGIYVGYRYFDTFDVPVLYPFGFGLSYTDFMICTEEIKTVNTESGKPEIAVTVKVTNTGDTYCGKEVVQIYVSCPQGKLAKEYRRLAGFAKTEELKPGESCRITITFPVYQLASFHEENAAWVLEEGTYGVWTGNSIQGAKLAGSLCVDKDAILVQCEHICPVKEELTELTPDSSRMKEKEAAWLEKAAGLPSVHIDAEKITKETVVYTELPERFTGRAGEIVESLSVEQLIQMSAGDPGKGQDAVLGSAGITVPGAAAETSSAASGEPWNLPSIALADGPAGLRLNQKYQVVDGEIVRENFMKSIEKGFFAEPSPEVGTAYYQFCTAIPVGTLLAQTWNAELVKEVGEMIGKEMELFQVTLWLAPGMNIHRNPLCGRNFEYYSEDPLLSGIMASAMTLGVQKVPGCGTTIKHFACNNQEDNRMGSDSVLSERALREIYLKGFEIAVKNSQPMSIMTSYNMINGVHAANCYDICTRAARDEWEFAGAVMTDWTTTFASPRGECTAAGCMRAGNDMVMPGIPKDHENIRRELEEGTLDIRELKRCICNTVNLILQSNRYENAVSYLEQFEGLDAYLSVERSN
On to B2, for which the Km in series [3] was determined as 240 ± 40 µM.

A word on the Km: it is the substrate concentration at which the rate is half of its maximum.
